Amino acid sequences for entries named in this document (tags omitted). A change or cut given only in a name is not applied to a line headed by its entry.
UniProt P51575: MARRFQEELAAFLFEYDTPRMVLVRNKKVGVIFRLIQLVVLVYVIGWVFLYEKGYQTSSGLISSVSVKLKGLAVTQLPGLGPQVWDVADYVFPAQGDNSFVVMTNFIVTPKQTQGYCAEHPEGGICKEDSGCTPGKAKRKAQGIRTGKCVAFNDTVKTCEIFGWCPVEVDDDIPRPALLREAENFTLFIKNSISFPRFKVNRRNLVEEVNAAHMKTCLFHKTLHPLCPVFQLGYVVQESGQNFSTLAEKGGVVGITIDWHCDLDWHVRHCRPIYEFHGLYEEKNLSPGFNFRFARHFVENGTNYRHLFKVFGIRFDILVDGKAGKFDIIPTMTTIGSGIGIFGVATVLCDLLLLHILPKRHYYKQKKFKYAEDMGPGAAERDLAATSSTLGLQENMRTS
UniProt P56373: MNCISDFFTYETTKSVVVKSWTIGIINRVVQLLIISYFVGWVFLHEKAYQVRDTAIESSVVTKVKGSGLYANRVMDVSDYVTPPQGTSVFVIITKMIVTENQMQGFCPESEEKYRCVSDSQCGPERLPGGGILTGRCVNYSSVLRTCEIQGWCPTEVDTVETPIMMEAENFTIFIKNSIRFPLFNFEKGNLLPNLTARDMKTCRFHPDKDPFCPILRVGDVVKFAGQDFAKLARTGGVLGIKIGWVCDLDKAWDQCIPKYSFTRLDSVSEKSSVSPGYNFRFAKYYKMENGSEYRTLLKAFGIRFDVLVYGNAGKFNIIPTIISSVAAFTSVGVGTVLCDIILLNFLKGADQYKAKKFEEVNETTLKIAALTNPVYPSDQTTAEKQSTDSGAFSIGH
UniProt P51576: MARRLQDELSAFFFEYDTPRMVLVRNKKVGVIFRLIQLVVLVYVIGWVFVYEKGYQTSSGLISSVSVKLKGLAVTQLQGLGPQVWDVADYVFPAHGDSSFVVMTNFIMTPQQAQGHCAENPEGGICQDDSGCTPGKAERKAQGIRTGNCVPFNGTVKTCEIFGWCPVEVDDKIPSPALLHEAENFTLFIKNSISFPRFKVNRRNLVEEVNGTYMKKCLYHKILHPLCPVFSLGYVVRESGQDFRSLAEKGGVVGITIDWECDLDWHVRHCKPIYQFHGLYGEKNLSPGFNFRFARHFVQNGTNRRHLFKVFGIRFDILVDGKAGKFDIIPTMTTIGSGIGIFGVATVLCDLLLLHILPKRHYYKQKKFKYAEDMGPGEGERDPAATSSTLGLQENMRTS

According to US9546139B2, “Pyridine carboxylic acid based compound used as a P2X1 and P2X3 receptor antagonist, a production method for the same and a composition comprising the same” (GWANGJU INSTITUTE OF SCIENCE AND TECHNOLOGY, priority 2010, dated 2017):

Key:
[1] = target: recombinant P2X1 receptor (Homo sapiens, UniProt P51575); settings: well-known antagonist to agonist-induced cation influx; cited from earlier work
[2] = target: human P2X3 receptor (Homo sapiens, UniProt P56373); assay: Two-electrode voltage clamp, ATP-induced ion current in Xenopus oocytes expressing human P2X3; assay type: cell-based; settings: Table 1; 10 μM compound; ion current induced by 2 μM ATP; mean ± SEM, n = 4
[3] = target: mouse P2X1 receptor (Mus musculus, UniProt P51576); assay: Two-electrode voltage clamp, ATP-induced ion current in Xenopus oocytes expressing mouse P2X1; assay type: cell-based; settings: Table 1; 10 μM compound; ion current induced by 2 μM ATP; mean ± SEM, n = 4
Description: 1-1. Antagonistic Activity at Recombinant Mouse P2X1 and Human P2X3 Receptors
Xenopus oocytes were harvested and prepared with method as previously described in publications. Defolliculated oocytes were injected cytosolically with mouse P2X1 and human P2X3 receptor cRNA ([…], 1 μg/mL), respectively, incubated for 24 hrs at 18° C. in Barth's solution and kept for up to 12 days at 4° C. until used in electrophysiological experiments. ATP-activated membrane currents (Vh=−70 mV) were recorded from cRNA-injected oocytes using the twin-electrode voltage-clamp technique (Axoclamp 2B amplifier). Voltage recording (1-2 MΩ tip resistance) and current-recording microelectrodes (5 MΩ tip resistance) were filled with 3.0 M KCl. Oocytes were held in an electrophysiological chamber and superfused with Ringer's solution (5 mL/min, at 18° C.) containing (mM) NaCl, 110; KCl, 2.5; HEPES, 5; BaCl2, 1.8, adjusted to pH 7.5. ATP was superfused over the oocytes for 60-120s then washed out for a period of 20 min. For inhibition curves, data were normalized to the current evoked by ATP, at pH 7.5. Test substances were added for 20 min prior to ATP exposure; all peptides were tested for reversibility of their effects. […]

## pyridoxal-5-phosphate
[1]
  IC50: 10 µM
[2]
  % inhibition hP2X3: 20.1 ± 4.2%
[3]
  % inhibition mP2X1: 13.2 ± 3.1%
